# Antibody variant affinities, Ab-95 light chain, assay 2

Reference: Engelhart et al. 2022, doi:10.1038/s41597-022-01779-4. File: FLAb, binding data.

Target: peptide PDVDLGDISGINAS, taken from heptad repeat 2 (HR2) of SARS-CoV-2 spike.

The variants keep the heavy chain, the linker and the frameworks of Ab-95 (scFv order VH, the linker GGGGSGGGGSGGGGS, VL).
VH: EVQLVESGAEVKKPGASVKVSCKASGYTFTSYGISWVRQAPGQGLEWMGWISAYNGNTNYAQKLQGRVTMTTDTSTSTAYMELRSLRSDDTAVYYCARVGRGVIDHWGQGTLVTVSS
VL: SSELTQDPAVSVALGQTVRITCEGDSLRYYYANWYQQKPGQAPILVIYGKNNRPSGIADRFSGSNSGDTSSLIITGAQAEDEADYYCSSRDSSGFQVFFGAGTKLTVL

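Phage display of a naive human antibody library on the peptide gave the parent. Library AAYL52 holds single substitutions and randomly drawn double and triple substitutions in the CDRs. The assay is AlphaSeq: two haploid yeast populations carry antibody and antigen on their surface. Pairs that bind mate more often; barcode pairs of the diploids are counted by sequencing. A regression on co-assayed BCL2-family reference pairs converts the normalised counts of each replicate to an apparent Kd. Mating was done three times.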

The parent's light chain CDRs are EGDSLRYYYAN, GKNNRPS, SSRDSSGFQVF; each variant's own CDRs replace them letter for letter.
Numbers give log10(Kd / nM), so 0 is 1 nM and 3 is 1 µM. Smaller is tighter.
Where no diploid with the target was found in that replicate, the entry reads "nd": below detection, most likely a poor binder, though not proof of it.

CDR-L1,CDR-L2,CDR-L3,"replicates, log10 nM",empty controls
EGDSLRYYYAN,SKNNRPS,SSRDSSLFQVF,2.83 nd nd,4/9 (3.81)
EYDSLRYYYVN,GKNGRPS,SSRDSSGFQVF,4.79 nd nd,2/9 (3.16)
EGDSVRYYYAN,GQNNRPS,CSRDSSGFQVF,3.32 3.07 nd,2/9 (4.02)
EGDSLRYYSAN,CKNNRPS,SKRDSSGFQVF,4.05 nd nd,1/9 (3.69)
EGDSLRYDYAN,GTNNMPS,SSRDSSGFQVF,nd nd nd,2/9 (3.72)
EGDSLRYPYAM,GKNNRPS,SSRDSSGFGVF,nd 4.42 nd,1/9 (3.09)
EGDSLRYYYAN,GKNNRYS,SHRDSSGTQVF,4.19 5.04 nd,2/9 (3.70)
EGDSNRYWYAN,GKNNRPS,SSRDSSRFQVF,nd 4.69 3.48,3/9 (3.99)
EGDSLRYYYAN,GKNQRPS,SSRASSGFQQF,2.28 2.60 2.83,3/9 (3.82)
EQMSLRYVYAN,GKNNRPS,SSRDSSGFQVF,nd 3.39 nd,1/9 (3.18)
EGDSMRYYYAN,GKNKRPS,SSRDCSGFQVF,4.64 nd nd,2/9 (3.60)
EGDSLRYYYAN,GKNNRNS,SSRDSSGFQVF,3.87 3.87 3.71,2/9 (4.32)
EGDLLRYYYAN,GKNNRMS,SSRDSSGFQNF,3.96 nd 3.84,0/9
EGDSLCYYYAN,GKNNRPS,SSQDSSGKQVF,nd nd nd,0/9
EGDSLRYYYAN,GKNNQPS,SSEDSSGDQVF,nd 4.75 nd,0/9
EGDSLRYYYAN,EKNNRPS,SSRDSSGFQVF,3.11 2.72 3.23,3/9 (3.50)
QGDSCRYYYAN,GKNNRPS,SSRDSSGFHVF,1.72 1.40 1.01,2/9 (3.76)
EGDSLRYYYAV,GKNDRPH,SSRDSSGFQVF,nd nd 3.53,3/9 (4.13)
MGDSLRYYYGN,GKNNRPP,SSRDSSGFQVF,2.17 4.27 2.68,1/9 (5.10)
EGDSGMYYYAN,GKNNRPS,SSFDSSGFQVF,nd 3.71 nd,4/9 (3.95)
EGDSLRYYYAN,FKYNRPS,SSRDSSGFQVF,4.87 nd 3.61,5/9 (3.98)
EGDSLRYYKAN,RKNNRPS,SSRDSSEFQVF,nd nd nd,2/9 (4.28)
EGDSLRYYYAN,GKNVRPL,SSRDSSGFQDF,2.77 2.44 2.92,5/9 (3.67)
EGDSLRYYYAN,GKNMRPS,SDRDQSGFQVF,2.52 2.57 2.58,4/9 (4.50)
EGDSLRYYYAN,GKNNRPS,SSNPSSGFCVF,2.88 3.09 2.35,4/9 (3.87)
EGDTLRYYEAN,GKNNRPS,SSRDSAGFQVF,1.77 1.73 1.62,2/9 (5.13)
EGDDLRYYYAN,GKMNRPS,SSRDSSGPQVF,nd 4.08 3.51,2/9 (4.00)
EGDSLRYYYAI,GKNNRPS,SSRDFRGFQVF,4.18 nd nd,2/9 (3.79)
EGDSRRYYYAN,GKPNRPE,SSRDSSGFQVF,3.52 4.55 nd,3/9 (4.03)
EGDSLRYYYQN,GKNWRPS,SSRDFSGFQVF,4.42 nd nd,1/9 (3.24)
FYDSLRYYYAN,GKNNRPS,SSRDSSGFQCF,nd nd nd,3/9 (4.30)
EGDSCRYYYAN,GKNERPS,SSRDSSGAQVF,nd 4.68 nd,2/9 (3.33)
EGDYNRYYYAN,EKNNRPS,SSRDSSGFQVF,nd nd 4.10,2/9 (4.01)
QGDSLRYVYAN,GKNQRPS,SSRDSSGFQVF,1.76 1.66 1.46,3/9 (4.91)
EGDSLRYYYAN,GKNMRPS,SSRASSGKQVF,3.06 2.18 3.13,3/9 (4.38)
EGDSLRYYYAN,CKNNVPS,SSRDSLGFQVF,4.21 4.27 3.22,5/9 (3.57)
EGDWLFYYYAN,GKNNRPS,SSRDSSGFQVF,3.73 4.99 2.55,1/9 (4.08)
IGDSLRYYYAN,GKNNRPS,SSRDSSGMQVF,4.00 2.68 3.71,1/9 (3.59)
EGDWLRYYYAN,PKNNRPS,TSRDSSGFQVF,3.97 3.89 3.91,5/9 (3.96)
EGISLRYYYQN,GKNNRPS,SSSDSSGFQVF,nd 4.37 nd,6/9 (3.90)
EGDSLRYYYAN,GHNNRPS,SSRWSSKFQVF,nd nd nd,0/9
EPDSLPWYYAN,GKNNRPS,SSRDSSGFQVF,5.05 4.00 nd,5/9 (4.03)
LGDSLRYYYAN,GKNNRPS,SSRDSSPNQVF,3.30 3.61 2.44,2/9 (3.28)
EGDSLRYYWAN,GRNNRPS,SLRDSSGFQVF,3.42 3.18 3.06,5/9 (3.99)
EGDSLRYYYAK,GKNNPPS,SSRDSSGFQVF,nd nd 4.13,4/9 (4.66)
EGDSLRYYFAN,GKNNRPS,SSRDSSGFQVF,1.87 1.97 3.95,1/9 (3.81)
EGDSLRYYYAN,GKNNRHS,SSRDSCGFQVR,3.78 nd 3.19,3/9 (3.82)
EADSLRYPYAN,GKNNRPS,SSRDSSGFRVF,2.14 1.99 1.79,5/9 (3.85)
EGDSLRYWHAN,GKNNRPR,SSRDSSGFQVF,2.90 2.39 3.05,1/9 (3.08)
EQDSLAYYYVN,GKNNRPS,SSRDSSGFQVF,3.31 2.49 2.60,3/9 (4.51)

The last 3 entries again:

CDR-L1,CDR-L2,CDR-L3,"replicates, log10 nM",empty controls
EADSLRYPYAN,GKNNRPS,SSRDSSGFRVF,2.14 1.99 1.79,5/9 (3.85)
EGDSLRYWHAN,GKNNRPR,SSRDSSGFQVF,2.90 2.39 3.05,1/9 (3.08)
EQDSLAYYYVN,GKNNRPS,SSRDSSGFQVF,3.31 2.49 2.60,3/9 (4.51)

Background: pairings of library AAYL52 with three empty control strains gave a value in 28% of cases (median 3.91, 5th percentile 2.90). Values in that range, when seen in few replicates, are hard to tell from nonspecific mating. Also given: how often the same scFv was detected with the empty control strains, with their mean in brackets.
In this assay the parent's reference entry averaged 2.31; its copy inside this library read 2.25.